# Legend:
# [1] = tested on: HCV replicon H/FL-Neo (genotype 1a (H77), full length construct); details: HCV genotype 1A replicon
# [2] = tested on: replicon cell line containing H/FL-Neo
substance,measurement,setting,value
"Interferon αIFNB2: recombinant human interferon alpha 2b, positive antiviral assay control",S.I. (CC50/EC50),[1],>5556
same,EC50,[1]; interferon in IU/mL,1.8 ± 0.2 IU/mL
same,EC90,[1]; interferon in IU/mL,8.0 ± 0.6 IU/mL
same,CC50,[2],">10,000 IU/mL"
